Data published in patent US20100093643A1 (priority 2006, published 2010).

Tested on: peripheral opiate receptors, guinea pig ileum (GPI, predominantly μ-type of opioid receptor)

SMILES: CN1CC[C@]23c4c5ccc(O)c4O[C@H]2[C@@H](O)C=C[C@H]3[C@H]1C5 [Morphine, reference compound]
- GPIrel/MVDrel: 107
